# In PMC4012456 (Marine Drugs, 2014):
# Amino acid sequences for entries named in this document (tags omitted). Residues count along the entry.
# UniProt P02710, 25-461 limits assumed: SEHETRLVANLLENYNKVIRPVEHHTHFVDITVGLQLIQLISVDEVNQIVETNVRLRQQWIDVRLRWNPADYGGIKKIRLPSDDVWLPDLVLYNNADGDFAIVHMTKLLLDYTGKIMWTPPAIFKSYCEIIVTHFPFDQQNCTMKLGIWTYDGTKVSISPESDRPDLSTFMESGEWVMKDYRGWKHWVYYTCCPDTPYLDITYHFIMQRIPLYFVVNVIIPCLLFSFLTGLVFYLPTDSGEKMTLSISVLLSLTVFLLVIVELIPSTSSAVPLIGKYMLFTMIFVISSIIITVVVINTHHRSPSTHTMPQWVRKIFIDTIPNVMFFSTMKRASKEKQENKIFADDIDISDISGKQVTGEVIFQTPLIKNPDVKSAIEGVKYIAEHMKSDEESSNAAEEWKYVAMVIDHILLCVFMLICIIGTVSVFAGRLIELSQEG
# UniProt P02712, 25-493 limits assumed: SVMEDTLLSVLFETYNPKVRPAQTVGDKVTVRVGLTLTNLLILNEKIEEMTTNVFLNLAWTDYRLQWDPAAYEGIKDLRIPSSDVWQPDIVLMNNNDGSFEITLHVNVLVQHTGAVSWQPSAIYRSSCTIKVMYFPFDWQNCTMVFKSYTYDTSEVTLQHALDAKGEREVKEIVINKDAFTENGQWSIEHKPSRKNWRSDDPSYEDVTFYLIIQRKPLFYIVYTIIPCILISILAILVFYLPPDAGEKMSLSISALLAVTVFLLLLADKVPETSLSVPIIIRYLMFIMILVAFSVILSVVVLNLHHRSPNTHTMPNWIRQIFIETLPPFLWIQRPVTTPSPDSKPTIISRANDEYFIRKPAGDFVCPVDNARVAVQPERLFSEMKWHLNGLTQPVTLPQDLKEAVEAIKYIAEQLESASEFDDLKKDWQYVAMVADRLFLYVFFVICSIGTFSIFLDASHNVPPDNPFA
# UniProt P02714, 18-506 limits assumed: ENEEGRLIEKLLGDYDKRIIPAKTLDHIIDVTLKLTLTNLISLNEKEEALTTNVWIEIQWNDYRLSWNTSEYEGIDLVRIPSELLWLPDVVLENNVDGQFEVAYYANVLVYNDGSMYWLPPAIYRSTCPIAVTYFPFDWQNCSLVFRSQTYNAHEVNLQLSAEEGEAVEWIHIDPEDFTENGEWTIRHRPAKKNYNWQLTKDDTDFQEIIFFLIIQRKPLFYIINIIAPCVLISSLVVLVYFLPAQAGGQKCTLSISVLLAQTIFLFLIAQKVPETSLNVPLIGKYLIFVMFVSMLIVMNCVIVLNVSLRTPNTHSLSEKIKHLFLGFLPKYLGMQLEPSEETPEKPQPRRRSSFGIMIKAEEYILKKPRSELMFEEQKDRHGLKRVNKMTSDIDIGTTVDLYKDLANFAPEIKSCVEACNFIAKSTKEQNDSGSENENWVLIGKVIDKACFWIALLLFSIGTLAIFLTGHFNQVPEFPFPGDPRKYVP
# UniProt P02718, 22-522 limits assumed: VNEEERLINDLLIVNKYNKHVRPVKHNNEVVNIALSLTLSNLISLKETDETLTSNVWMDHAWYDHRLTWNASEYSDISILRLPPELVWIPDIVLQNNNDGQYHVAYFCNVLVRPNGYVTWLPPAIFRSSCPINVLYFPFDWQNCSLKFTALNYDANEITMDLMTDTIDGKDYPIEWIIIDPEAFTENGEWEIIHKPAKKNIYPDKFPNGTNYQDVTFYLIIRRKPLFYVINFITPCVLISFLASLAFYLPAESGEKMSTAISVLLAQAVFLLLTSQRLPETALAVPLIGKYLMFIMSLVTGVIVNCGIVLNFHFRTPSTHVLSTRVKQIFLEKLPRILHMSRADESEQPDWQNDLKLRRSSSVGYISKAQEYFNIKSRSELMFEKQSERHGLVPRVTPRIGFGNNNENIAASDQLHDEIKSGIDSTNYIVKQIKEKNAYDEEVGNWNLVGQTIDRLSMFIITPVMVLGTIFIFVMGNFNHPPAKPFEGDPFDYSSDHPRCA
# UniProt P58154, 20-229 limits assumed: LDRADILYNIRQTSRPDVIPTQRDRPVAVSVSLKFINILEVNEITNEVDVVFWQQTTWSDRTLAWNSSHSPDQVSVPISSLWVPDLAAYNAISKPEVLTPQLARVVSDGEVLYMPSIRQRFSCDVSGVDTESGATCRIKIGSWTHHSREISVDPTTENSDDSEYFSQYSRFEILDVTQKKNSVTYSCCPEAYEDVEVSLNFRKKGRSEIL
# UniProt P36544, 23-502 limits assumed: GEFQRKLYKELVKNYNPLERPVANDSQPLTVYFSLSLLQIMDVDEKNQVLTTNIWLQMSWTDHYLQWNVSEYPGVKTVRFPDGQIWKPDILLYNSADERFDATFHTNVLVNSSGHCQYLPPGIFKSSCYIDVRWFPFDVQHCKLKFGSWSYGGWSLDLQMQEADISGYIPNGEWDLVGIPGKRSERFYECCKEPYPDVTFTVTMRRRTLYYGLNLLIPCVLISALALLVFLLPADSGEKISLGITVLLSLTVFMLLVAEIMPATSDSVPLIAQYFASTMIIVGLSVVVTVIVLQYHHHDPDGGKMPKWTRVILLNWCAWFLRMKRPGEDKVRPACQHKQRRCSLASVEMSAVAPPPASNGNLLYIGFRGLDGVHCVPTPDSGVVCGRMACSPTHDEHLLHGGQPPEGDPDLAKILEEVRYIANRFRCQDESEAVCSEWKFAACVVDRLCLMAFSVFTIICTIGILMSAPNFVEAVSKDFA
# Columns and labels:
# [1] = target: muscle-type nAChR from T. californica (Tetronarce californica, UniProt P02710+P02712+P02714+P02718); assay: radioligand assay, competition with [125I]-αBgt for binding to Torpedo nAChR; conditions: for preference for muscle-type (T. californica) nAChR over human α7 nAChR: in competition with [125I]-αBgt; for Ki: read-out: Ki Values on T. californica nAChR, competition with [125I]-αBgt, electric organ membranes, Cheng-Prusoff, mean ± s.e.m.
# L. stagnalis AChBP = L. stagnalis AChBP (Lymnaea stagnalis, UniProt P58154); assay: radioligand assay, competition with [125I]-αBgt for binding to AChBP; conditions: read-out: Experimental Ki values at interaction with L. stagnalis AChBP from radioligand assay, IC50 converted by Cheng-Prusoff, mean ± s.e.m.
# human neuronal α7 nAChR = human neuronal α7 nAChR (Homo sapiens, UniProt P36544); assay: radioligand assay, competition with [125I]-αBgt for binding to α7 nAChR in GH4C1 cells; conditions: read-out: Ki Values on human α7 nAChR, Cheng-Prusoff, mean ± s.e.m.
Compound,preference for muscle-type (T. californica) nAChR over human α7 nAChR [1],Ki (L. stagnalis AChBP),Ki [1],Ki (human neuronal α7 nAChR)
CC[C@@H]1C=CCC[C@]2(C[C@H]3CC[C@H]4C[C@@]5(CCC[C@H](C)O5)NC(=N2)N34)O1 [listing 1 of 2 here],twenty-fold,,,
Cn1c(=N)c2nc[nH]c2n(C)c1=O,,> 1000 µM,≥ 1000 µM,≥ 1000 µM
CC[C@@H]1C=CCC[C@]2(C[C@H]3CC[C@H]4C[C@@]5(CCC[C@H](C)O5)NC(=N2)N34)O1 [listing 2 of 2 here],,27 µM,17 µM,310 µM
"C[C@@H](N)[C@H](O)CCCCCCCC(=O)CCCCCCCCCCCCCC[C@@H](O[C@@H]1O[C@H](CO)[C@H](O)[C@H](O)[C@H]1O)[C@@H](C)N [Compound 1, Rhizochalin]",,28 µM,20 to 60 µM and 22 µM,20 to 60 µM and 33 µM
"C[C@@H](N)[C@H](O)CCCCCCCCCCCCCCC(=O)CCCCCCC[C@@H](O)[C@@H](C)N [Compound 2, aglycone of rhizochalin]",,130 µM,20 to 60 µM and 24 µM,
"C[C@@H]1C[C@@H]2c3cccc4[nH]c(Br)c(c34)C[C@H]2N(C)C1 [Compound 3, pibocin]",,0.83 µM,44 µM,130 µM
"COc1cc(CCN)c2c(c1OC)SSSSS2 [Compound 4, Varacin]",,0.79 µM,10 µM,19 µM
"C[N+]1=C2C=C(N)C(=O)c3[nH]cc(c32)CC1 [Compound 5, makaluvamine C]",,1.3 µM,1.3 µM,3.6 µM
"Cn1cc2c3c1C(=O)C(N/C=C/c1ccc(O)cc1)=CC3=[N+](C)CC2 [Compound 6, makaluvamine G]",ten-fold,0.55 µM,1.6 µM,18 µM
"NC1=N/C(=C2/CCNC(=O)c3[nH]ccc32)C(=O)N1 [Compound 7, Debromohymenialdesine]",,> 1000 µM,≥ 1000 µM,≥ 1000 µM
"C[n+]1ccccc1-c1cccc[n+]1C [Compound 8, 1,1′-Dimethyl-[2,2′]-bipyridyldiium salt]",,540 µM,≥ 1000 µM,≥ 1000 µM
"O=C1NCCc2cncn21 [Compound 10, 7,8-Dihydroimidazo-[1,5-c]-pyrimidin-5(6H)-one]",,> 1000 µM,≥ 1000 µM,≥ 1000 µM
"COc1cc2ccnc3c2c(c1OC)NC=C3 [Compound 12, Aaptamine]",,3 µM,34 µM,120 µM
"CC/C=C/[C@@H]1CC[C@]2(C[C@H]3CC[C@H]4[C@@H](C(=O)OC(CC)CCCCCCCCCCCCC[C@@H]5O[C@](O)(CCN)[C@H](O)N(CCCN)C5=O)[C@@]5(CCC[C@H](C)O5)NC(=N2)N34)O1 (stereo partly shown) [Compound 13, monanchocidin]",,2.5 µM,8 µM,38 µM

# Values joined by “and” are separate entries in the source; they are usually repeats but may differ in a detail not shown here. Identical values can stand only once. Counter-ions that a name gives are not always drawn.
